By UniProt entry, the sequences of proteins in these tests, tags left out. Chains listed by the source or under a name are the forms on record and can include a tag or linker. Residues count along the entry.
UniProt P01116, 1-188 with tags or gaps G12D: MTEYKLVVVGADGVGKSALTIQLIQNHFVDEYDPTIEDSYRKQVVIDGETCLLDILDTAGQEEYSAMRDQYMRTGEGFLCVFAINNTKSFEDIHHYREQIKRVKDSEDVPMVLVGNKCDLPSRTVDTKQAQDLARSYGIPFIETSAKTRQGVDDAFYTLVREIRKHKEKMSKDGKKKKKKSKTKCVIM

According to patent US20260384453A1, “FUSED RING COMPOUND AND USE THEREOF IN KRAS INHIBITOR” (published 2026):

Columns and labels:
[1] = target: KRAS G12D-mediated ERK phosphorylation, AGS cells (Homo sapiens, UniProt P01116, G12D); test: Inhibition of KRAS G12D-mediated ERK phosphorylation in AGS cells; conditions: read-out: Inhibitory activity on ERK phosphorylation (IC50), AGS-G12D, 3 h incubation
Protocol: Test Example 1: Inhibitory Activity Test of Compounds on KRAS G12D/G12V/G12C/G13D/G12R-Mediated ERK Phosphorylation
Day 1: AGS cells, SW480 cells, NCI H358 cells, HCT116 cells, and KP2 cells were seeded into 384-well cell culture plates and cultured overnight in a 37 °C, 5% CO2 incubator.
Day 2: The compounds were added to the plates using Echo550 and incubated for 3 h in a 37 °C, 5% CO2 incubator. Then, cells fixed with paraformaldehyde, permeated with methanol and blocked with a blocking solution were added. Finally, a mixed solution of primary antibodies (rabbit anti pERK, mouse anti GAPDH) was added, and the mixture was incubated overnight at 4 °C.
Day 3: The mixed solution of primary antibodies was discarded, and a mixed solution of secondary antibodies (goat anti rabbit 800 CW, goat anti mouse 680 RD) was added. The resulting mixture was incubated at room temperature in the dark. Finally, the cell culture plate was washed with PBST, and then inverted for 1 minute of centrifugation. The fluorescence signal values were read with Odyssey CLx.
ERK phosphorylation was calculated according to the following formula:
Relative expression: (fluorescence signal ratio of compound−average value of positive control)/(average value of negative control−average value of positive control)
Positive control: 10 μM Reference
IC50 value was fitted and calculated by XLFit 5.0 using the parametric formula. […]

[2] = test system: human ovarian cancer RKN mouse xenograft tumor; test: In vivo drug efficacy, RKN subcutaneous xenograft in Balb/c nude mice; conditions: 50 mg/kg, PO, BID × 28
Protocol: A subcutaneous xenograft tumor model of human ovarian cancer RKN (derived from uterine leiomyosarcoma) cells was established in Balb/c nude mice. RKN tumor cells resuspended in Ham's F12 medium were inoculated subcutaneously on the right side of the experimental animals at 5×10^6+gel/0.1 mL. When the tumor grew to about 150-200 mm^3, 20 animals having relatively uniform tumor volumes were selected for group administration, with a total of 4 groups, 5 animals in each group. On the day of the experiment, the animals were given the corresponding drugs according to the groups. The first group G1 was set as a solvent group, and 50 mM citrate buffer (pH 5.0)+10% Captisol was given by gavage alone. The second group G2 was given a 50 mM citrate buffer (pH 5.0)+10% Captisol of compound 21. The third group G3 was given a 50 mM citrate buffer (pH 5.0)+10% Captisol of compound 26. The fourth group G4 was given a 50 mM citrate buffer (pH 5.0)+10% Captisol of compound 31.
(§1) Note: PO indicates oral administration, and BID indicates twice daily.
(§2) During the experiment, the body weight and tumor size of the animals were measured twice a week, and the clinical symptoms of the animals were observed and recorded every day. Each drug administration was based on the most recent weighing of the animals.
(§3) The tumor was measured with a digital vernier caliper to measure the length (a) and width (b). The tumor volume (TV) was calculated using the following formula: […]

[3] = test system: human colon cancer GP2D mouse xenograft tumor; test: In vivo drug efficacy, GP2D subcutaneous xenograft in Balb/c nude mice; conditions: 30 mg/kg, PO, BID × 28
Protocol: A human colon cancer GP2D cell subcutaneous xenograft tumor Balb/c nude mouse model was established. GP2D tumor cells resuspended in DMEM medium were inoculated subcutaneously on the right side of the experimental animal at 1×10^7+gel/0.1 mL. When the tumor grew to about 150-200 mm^3, administration in groups began, with 5 animals in each group. On the day of the experiment, the animals were given corresponding drugs according to the groups. The first group G1 was set as a solvent group, and 50 mM citrate buffer (pH 5.0)+10% Captisol was given by gavage alone. The second group G2 was given a 50 mM citrate buffer (pH 5.0)+10% Captisol of compound 26. The third group G3 was given a 50 mM citrate buffer (pH 5.0)+10% Captisol of compound 31.
as §1, §2, §3

| SMILES | IC50 [1] [nM] | Inhibitory effect on RKN xenograft tumors (in words) [2] | Inhibitory effect on GP2D xenograft tumors (in words) [3] |
| --- | --- | --- | --- |
| COC1CCN(c2nc(OC[C@]34CCCN3[C@@H](c3cc(F)c(F)c(F)c3)CC4)nc3c(F)c(-c4ccc(F)c5sc(N)c(C#N)c45)c(Cl)cc23)C1 (mixture of isomers) | > 1000 | – | – |
| N#Cc1c(N)sc2c(F)ccc(-c3c(Cl)cc4c(N5CCCC(O)(C(F)(F)F)CC5)nc(OC[C@]56CCCN5[C@@H](c5cc(F)c(F)c(F)c5)CC6)nc4c3F)c12 (mixture of isomers) | 313 | – | – |
| CC1(O)COCCN(c2nc(OC[C@]34CCCN3[C@@H](c3cc(F)c(F)c(F)c3)CC4)nc3c(F)c(-c4cccc5sc(N)c(C#N)c45)c(Cl)cc23)C1 (single isomer, unassigned) [Example 21] | – | significant inhibitory effects | – |
| CC1(O)COCCN(c2nc(OC[C@]34CCCN3[C@@H](c3cc(F)c(F)c(F)c3)CC4)nc3c(F)c(-c4cccc5sc(N)c(C#N)c45)c(Br)cc23)C1 (single isomer, unassigned) [Example 26] | – | significant inhibitory effects | significant inhibitory effects |
| CC1(O)COCCN(c2nc(OC[C@]34CCCN3[C@@H](c3cc(F)c(F)c(F)c3)CC4)nc3c(F)c(-c4cccc5sc(N)c(C#N)c45)c(I)cc23)C1 (single isomer, unassigned) [Example 31] | – | significant inhibitory effects | significant inhibitory effects |
